T1: tBCMA (Homo sapiens, UniProt Q02223)
T1 construct: CD8 signal peptide (N); expressed in transfected cells; host or cells: T cells transduced with a lentiviral vector
T1 sequence (Q02223 with tags, fused parts or gaps): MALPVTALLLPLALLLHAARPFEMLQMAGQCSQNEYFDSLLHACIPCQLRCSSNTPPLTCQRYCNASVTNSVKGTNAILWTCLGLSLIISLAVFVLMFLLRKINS

The chains behind the UniProt entries cited, without tags or fusion partners. Where a name states a change or a piece, a line headed by the entry shows the natural chain unless it says otherwise.
UniProt Q02223: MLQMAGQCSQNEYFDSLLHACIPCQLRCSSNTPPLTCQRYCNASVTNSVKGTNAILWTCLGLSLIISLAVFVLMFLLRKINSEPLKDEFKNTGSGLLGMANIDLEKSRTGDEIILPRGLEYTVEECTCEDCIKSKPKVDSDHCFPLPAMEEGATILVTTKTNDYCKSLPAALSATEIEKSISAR


Key:
tBCMA = target: T1, tBCMA; test: Detection of tBCMA on SIR-T cells by binding of secreted NLuc fusion protein (NLuc activity); details: 100 μl 293FT supernatant, 2 washes, coelentrazine
Method: T cells are infected with a lentiviral vector encoding a SIR targeting CD19 (SEQ ID NO: 3461) and coexpressing CD8SP-tBCMA (SEQ ID NO: 68) or GMCSF-SP-Q-tBCMA (SEQ ID NO: 69). The expression of the tBCMA on the transduced is detected by binding with the 293FT supernatant collected 48 hours after the transfection of the fusion construct CD8SP-BCMA-huC12A3-L3H3-(vL-vH)-GGSG-NLuc-4×FLAG-×2STREP-8×His (SEQ ID NO: 192). SIR-T cells are bound with 100 μl of supernatant containing the secreted BCMA-NLuc fusion protein and after 2 washes the NLuc activity is measured by addition of coelentrzine. […] The SIR-T cells are purified by immunostaining with a FITC-conjugated anti-human BCMA antibody and flow-sorting or by magnetic sorting using BCMA-antibody conjugated magnetic beads.

[1] = tested on: BCMA specific CAR, SIR, TFP and Ab-TCR; test: Topanga assay: binding of BCMA-ECD-NLuc fusion protein to T cells expressing BCMA specific CAR, TFP, SIR and Ab-TCR; details: 293FT supernatant bound 45 minutes on ice, 48 hours post-infection
Method: T cells are activated using CD3/CD28 beads and infected with lentiviral vectors encoding BCMA specific CAR (SEQ ID NO: 1470), TFP (SEQ ID NO: 12186), SIR (SEQ ID NO: 3715) and Ab-TCR (SEQ ID NO: 4447). Forty-eight hours post-infection, the expression of BCMA specific CAR, SIR, TFP and Ab-TCR on the surface of T cells is detected using Topanga assay. For this purpose, 293FT supernatant containing secreted NLuc fusion protein collected 72 hours after transfection with the construct CD8SP-BCMA-ECD-GGSG-NLuc-4×Flag-2×Streptag-8×His (SEQ ID NO: 180) is bound to the lentiviral transduced T cells for 45 minutes on ice. Cells are washed twice with PBS and the bound NLuc activity is measured by addition of coelentrazine containing assay buffer. […] Essentially similar results are obtained when the CD8 signal peptide (CD8SP; SEQ ID NO: 15)) in the CD8SP-BCMA-ECD-GGSG-NLuc-4×Flag-2×Streptag-8×His construct (SEQ ID NO: 180) is replaced by GM-CSF signal peptide (SEQ ID NO: 14).

NLuc activity bound to SIR-T cells expressing tBCMA as compared to control T cells (tBCMA)	Molecule	bound NLuc activity on T cells expressing BCMA specific CAR, TFP, Ab-TCR and SIR as compared to control T cells or CD19-specific CAR T cells [1]
increase in NLuc activity	CD8SP-BCMA-huC12A3-L3H3-(vL-vH)-GGSG-NLuc-4×FLAG-×2STREP-8×His: secreted BCMA-NLuc fusion protein in 293FT supernatant, used to detect tBCMA (protein) MALPVTALLLPLALLLHAARPDIVLTQSPATLSLSPGDRATISCRASESVTILGSHLIYWYQQKPGQPPRLLIQLASNVQTGVPARFSGSGSRTDFTLTISSVEPEDFAVYYCLQSRTIPRTFGQGTKLEIKRGGGGSGGGGSGGGGSQVQLVQSGPEVKKPGESVKISCKASGYTFRHYSMNWVKQAPGQGLKWMGRINTESGVPIYADDFKGRFSFTVDTSASTAYLEISSLTSEDTAVYFCSNDYLYSLDFWGQGTTLTVSSTRGGSGVFTLEDFVGDWRQTAGYNLDQVLEQGGVSSLFQNLGVSVTPIQRIVLSGENGLKIDIHVIIPYEGLSGDQMGQIEKIFKVVYPVDDHHFKVILHYGTLVIDGVTPNMIDYFGRPYEGIAVFDGKKITVTGTLWNGNKIIDERLINPDGSLLFRVTINGVTGWRLCERILALEGGSWSHPQFEKDYKDDDDKGSDYKDDDDKGSDYKDDDDKGSDYKDDDDKAWSHPQFEKHHHHHHHHTSGSGEGRGSLLTCGDVEENPGPHMTEYKPTVRLATRDDVPRAVRTLAAAFADYPATRHTVDPDRHIERVTELQELFLTRVGLDIGKVWVADDGAAVAVWTTPESVEAGAVFAEIGPRMAELSGSRLAAQQQMEGLLAPHRPKEPAWFLATVGVSPDHQGKGLGSAVVLPGVEAAERAGVPAFLETSAPRNLPFYERLGFTVTADVEVPEGPRTWCMTRKPGA	–
–	CD8SP-BCMA-ECD-GGSG-NLuc-4×Flag-2×Streptag-8×His: secreted BCMA-ECD NLuc fusion protein in 293FT supernatant for detection of BCMA CAR-T cells (protein) MALPVTALLLPLALLLHAARPFEMLQMAGQCSQNEYFDSLLHACIPCQLRCSSNTPPLTCQRYCNASVTNSVKGTNATRGGSGVFTLEDFVGDWRQTAGYNLDQVLEQGGVSSLFQNLGVSVTPIQRIVLSGENGLKIDIHVIIPYEGLSGDQMGQIEKIFKVVYPVDDHHFKVILHYGTLVIDGVTPNMIDYFGRPYEGIAVFDGKKITVTGTLWNGNKIIDERLINPDGSLLFRVTINGVTGWRLCERILALEGGSWSHPQFEKDYKDDDDKGSDYKDDDDKGSDYKDDDDKGSDYKDDDDKAWSHPQFEKHHHHHHHHTSGSGEGRGSLLTCGDVEENPGPHMTEYKPTVRLATRDDVPRAVRTLAAAFADYPATRHTVDPDRHIERVTELQELFLTRVGLDIGKVWVADDGAAVAVWTTPESVEAGAVFAEIGPRMAELSGSRLAAQQQMEGLLAPHRPKEPAWFLATVGVSPDHQGKGLGSAVVLPGVEAAERAGVPAFLETSAPRNLPFYERLGFTVTADVEVPEGPRTWCMTRKPGA	significant increase in NLuc activity

From US20220135678A1, “METHODS AND COMPOSITIONS TO IMPROVE THE SAFETY AND EFFICACY OF CELLULAR THERAPIES” (University of Southern California, priority 2019, published 2022)
